Source: ChEMBL document CHEMBL3877300, “Design, synthesis, docking studies and biological evaluation of novel dihydro-1,3,5-triazines as human DHFR inhibitors” (Eur J Med Chem, 2017)

Experiment: Antitumor activity against human A549 cells xenografted in BALB/c nude mouse assessed as tumor volume at 2 mg/kg, ip administered 14 times in 22 days measured on day 18 post dose (reference value: 692.11 +/- 102.17 mm3)
Type: functional

With `CN(Cc1cnc2nc(N)nc(N)c2n1)c1ccc(C(=O)N[C@@H](CCC(=O)O)C(=O)O)cc1` [METHOTREXATE] the Activity was 335.97 mm3.
